Where two headings read alike, the source gives them in different places.

In data set [1] the test system is VEGF gene expression in THP1 cells. Kind of data set: VEGF gene expression in THP1 cells (qRT-PCR). In kind it is cell-based, human. Particulars: 2 hours treatment, normalized to GAPDH. An excerpt: This example illustrates the activation of VEGF expression in THP1 cells by several embodiments of the disclosure.
THP1 cells (human acute monocytic leukemia cell line) were used to analyze the stimulation of VEGF gene expression after treatment with relaxin or compounds. The VEGF stimulation in these cultured endometrial cells is a well-established property of relaxin.^19 This effect is most probably responsible for the observed angiogenic and neovascularization properties of relaxin in various settings.^20 400,000 THP1 cells (0.4 mL at 1×10^6 cells/mL) in test media (RPMI-1640 without phenol red, 0.5% FBS, Ix Pen/Strep, 0.05 mM of 2-mercaptoethanol) were seeded in each well on a 24-well plate. After 24 hours incubation at 37° C., 5% CO2, relaxin or compounds were added for 2 hours. The cells were harvested and RNA was extracted by the Trizol (Invitrogen, Carlsbad, Calif.) method according to manufacturers' instructions. cDNA was synthesized by using Verso cDNA kit (Thermo Scientific, Waltham, Mass.) according to manufacturer's protocol. Quantitative real time RT-PCR for VEGF and GAPDH gene expression was done using a Roche LightCycler 480 (Roche Diagnostics, Indianapolis, Ind.) with the appropriate set of primers and probes spanning different exons. The relative fold change in VEGF mRNA level was calculated by the comparative Ct (2-ΔΔ^Ct) method using GAPDH expression for normalization of RNA.
The results are set forth in Table 8 as relative VEGF gene expression relative to control.

The target of data set [2] is T1, RXFP1 (Homo sapiens, UniProt Q9HBX9).
T1 construct: expressed in transfected cells
T1 sequence (Q9HBX9 1-757): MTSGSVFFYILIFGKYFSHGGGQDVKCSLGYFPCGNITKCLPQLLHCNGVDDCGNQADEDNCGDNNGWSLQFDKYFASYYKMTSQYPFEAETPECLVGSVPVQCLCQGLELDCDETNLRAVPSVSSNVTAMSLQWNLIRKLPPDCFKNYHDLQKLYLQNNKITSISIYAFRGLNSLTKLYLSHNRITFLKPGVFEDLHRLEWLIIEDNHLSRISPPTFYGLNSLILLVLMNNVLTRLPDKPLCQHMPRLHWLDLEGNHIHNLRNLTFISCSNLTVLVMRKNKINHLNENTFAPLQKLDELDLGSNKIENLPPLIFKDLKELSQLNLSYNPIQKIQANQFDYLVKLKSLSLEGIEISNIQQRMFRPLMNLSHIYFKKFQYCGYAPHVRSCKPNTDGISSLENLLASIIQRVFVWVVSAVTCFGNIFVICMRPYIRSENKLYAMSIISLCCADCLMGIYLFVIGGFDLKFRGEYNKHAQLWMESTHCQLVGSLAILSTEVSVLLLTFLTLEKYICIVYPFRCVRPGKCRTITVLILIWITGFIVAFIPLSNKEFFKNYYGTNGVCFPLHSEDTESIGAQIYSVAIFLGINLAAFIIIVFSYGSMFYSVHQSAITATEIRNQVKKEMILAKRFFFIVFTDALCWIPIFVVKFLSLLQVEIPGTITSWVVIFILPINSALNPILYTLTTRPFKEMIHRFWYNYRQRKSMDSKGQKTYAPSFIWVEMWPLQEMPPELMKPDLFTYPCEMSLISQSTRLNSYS
Kind of data set: RXFP1 cAMP assay in HEK293-RXFP1 cells (HTRF). The class given is cell-based.

Data set [3] is described as follows: ATP Cytotoxicity assay (ATPLite) in HEK293-RXFP1 cells. Particulars: human, inactive = Maximum response less than 30%, read-out: ATP Tox. EC50 (μM, Max. Resp.): EC50. The class given is cell-based.

On to `COc1ccccc1C(=O)Nc1ccccc1C(=O)Nc1cccc(S(=O)(=O)C(F)(F)F)c1` [Compound 159, 2-Methoxy-N-(2-((3-((trifluoromethyl)sulfonyl)phenyl)carbamoyl)phenyl)benzamide], for which the “Relative VEGF gene expression (control = 1.0)” value (from here on “Relative VEGF gene expression”) in data set [1] was determined as 1.4.
Consider `CCOc1ccccc1-c1nc2ccccc2c2nc3ccc(C(F)(F)F)cc3n12` [Example 142], for which the Emax in data set [2] (percentage of the maximal receptor activation induced by high concentrations of forskolin, Tables 1-7, read-out: Max Response) was determined as 34%.
Take `CCOc1ccccc1C(=O)Nc1ccccc1C(=O)Nc1cccc(S(=O)(=O)C(F)(F)F)c1` [Example 174, 2-Ethoxy-N-(2-((3-((trifluoromethyl)sulfonyl)phenyl)carbamoyl)phenyl)benzamide]: in data set [1], the “Relative VEGF gene expression” value is listed as 2.3.
Take `O=C(Nc1cccc(S(=O)(=O)C(F)(F)F)c1)c1ccccc1NC(=O)c1ccccc1OCC(F)(F)F` [Example 177, 2-(2,2,2-Trifluoroethoxy)-N-(2-((3-((trifluoromethyl)sulfonyl)phenyl)carbamoyl)phenyl)benzamide]: the “Relative VEGF gene expression” value in data set [1] is 1.3.
With `CC(C)Oc1ccccc1C(=O)Nc1ccccc1C(=O)Nc1cccc(S(=O)(=O)C(F)(F)F)c1` [Example 178], the Emax in data set [2] (read-out: Max Response) stood at 98%; in data set [2] (read-out: RXFP1 AC50 (μM, Max. Resp.): Max. Resp.), 98%.
In the case of `CCCCOc1ccccc1C(=O)Nc1ccccc1C(=O)Nc1cccc(S(=O)(=O)C(F)(F)F)c1` [Example 180, 2-Butoxy-N-(2-((3-((trifluoromethyl)sulfonyl)phenyl)carbamoyl)phenyl)benzamide], in data set [1], the “Relative VEGF gene expression” value came out at 1.6.
Consider `CCCCOc1ccccc1C(=O)Nc1ccccc1C(=O)Nc1cccc(S(=O)(=O)C(F)(F)F)c1` [Example 180], for which, in data set [3], the EC50 at 72 h was found to be 59.3 µM.

The values above are taken from US10125112B2, “Modulators of the relaxin receptor 1” (The United States of America, as Represented by the …, priority 2012, dated 2018).
